# Key:
# [1] = Pharmacokinetic study in rats after oral administration of CUT and MP-NPs, plasma by UHPLC-MS/MS; type: in vivo, Sprague Dawley (SD) rats; settings: n = 6, mean ± SD
# Method: An Agilent 6430 triple quadrupole mass spectrometer with an ESI source interface (Agilent Technologies, Santa Clara, CA, United States) was used in conjunction with an Agilent 1290 UHPLC system (Agilent Technologies). A Waters ACQUITY HSS T3 Column (1.8 μm, 2.1 × 100 mm) (Waters, Manchester, UK) was also used for the separations. Gradient elution was performed using water (A) and methanol (B) as mobile phases. The gradient elution procedure was used for 0.0–1.0 min, 80%–80% B; 1.0–1.5 min, 80%–90% B; 1.5–3.0 min, 90%–90% B; 3.0–3.2 min, 90%–80% B; and 3.2–4 min, 80%–80% B. The analytical temperature was 35 °C, and the flow rate was 0.3 mL/min. An injection of 5 μL volume was administered, after which the needle was washed. Positive ion-mode analysis was performed for the samples. The capillary voltage was set to 4500 V, source temperature to 100 °C, and the desolvation temperature to 350 °C ([Wang et al., 2014]). High-purity nitrogen was used as the nebulizing gas, and nitrogen was used as the drying gas at a flow rate of 11 L/min. The Agilent Mass Hunter workstation was used to gather the experimental data ([Wang Z et al., 2023]). Using specific precursor and product ion transitions at m/z 581.2→521.9 for CuB, m/z 539.3→480.2 for CuD, m/z 578.9→520.9 for CuE, and m/z 418.9→387.1 for IS at various fragmentor voltage (FV) and collision energy (CE) conditions listed in Table 1, quantification was accomplished using multiple reaction monitoring (MRM) mode.
# A total of 12 male Sprague Dawley (SD) rats (weight: 220 ± 20 g) were provided by the Animal Experiment Center of Heilongjiang University of Traditional Chinese Medicine (Production license number: SYXK (Hei) 2021-010). The Laboratory Animal Ethics Committee of Heilongjiang University of Traditional Chinese Medicine approved the study (Approval No.: 2024053114).
# Animals were randomly assigned to the following two experimental groups (n = 6 per group): CUT and MP-NPs. Treatments were administered once daily for seven consecutive days, with the plasma sampling performed at predetermined time points after administration. Dosage was calculated based on human-equivalent doses converted to rat pharmacokinetic parameters using interspecies scaling factors. The human-rat dose conversion procedure was used to determine the dose of CUT per rat to be 0.03 g. The recommended daily dosage for humans is 6 tablets. The dose of MP-NPs per rat was determined to be 0.06 g per rat using the human-rat dose conversion formula, whereas the dose of P. Melo for human usage was 3 g, with reference to the Pharmacopoeia of the People’s Republic of China 2025.
# At 0.083, 0.25, 0.50, 1, 1.5, 2, 2.5, 3, 4, 6, 8, 12, and 24 h following oral administration of CUT and MP-NPs, 0.25 mL of plasma samples were sampled by rapidly collecting and centrifuging at 4 °C, followed by freezing at −20 °C for further analysis ([Yu et al., 2023]).
# Blank plasma sample (100 μL) was vortexed for 60 s after adding 100 μL of IS. To guarantee complete extraction, 3 mL of dichloromethane was then added to each sample, followed by vortexing for 120 s. Subsequently, the samples were centrifuged for 10 min at 4 °C and 3,500 rpm. At 40 °C, the […] organic phase was carefully moved into a sterile tube, dried off with a mild stream of nitrogen gas, and then reconstituted in 100 μL of the original mobile phase. Following a 120 s vortex, the extracts were filtered through a 0.22 μm Millipore filter before subjecting them to quantitative analyses by injecting 5 μL of them into the UHPLC-MS/MS apparatus.
# The established UHPLC-MS/MS method was applied to simultaneously measure the plasma concentrations of the three analytes in rats following dose administration. Pharmacokinetic parameters have attracted attention in exploring drug absorption and distribution. These parameters include T 1/2, C max, T max, and AUC (Table 6). The pharmacokinetics of SD rats following oral administration of CUT and MP-NPs were investigated through UHPLC-MS/MS. […]
# [2] = Stability of the analytes in rat plasma under different storage conditions; type: in vitro ADME; settings: for Stability (RE%) Post-preparative / Stability (RE%) Short-term / Stability (RE%) Long-term / Stability (RE%) Freeze-thaw: rat plasma, n = 6; for Stability (RE%) Short-term: ambient temperature (25 °C) for 4 h; for Stability (RE%) Freeze-thaw: three freeze-thaw cycles (−20 °C/room temperature)
# Source text: Table 5 outlines the stability of LQC, MQC, and HQC in the rat plasma under different storage conditions. […] The RSD for these conditions was ≤11.01%, confirming minimal variability.
# [3] = CUT group, oral cucurbitacin tablet 0.03 g per rat
# [4] = MP-NPs group, oral MP-NPs(PVP-K30) 0.06 g per rat
# [5] = HQC (spiked 300.2 CuB, 600.2 CuD, 300.8 CuE ng/mL)
# [6] = LQC (spiked 5.272 CuB, 25.30 CuD, 5.257 CuE ng/mL)
# [7] = MQC (spiked 150.1 CuB, 300.1 CuD, 150.4 CuE ng/mL)
substance,measurement,setting,value
cucurbitacin B [CuB],AUC 0→t,[1]; [3],617.9 ± 88.56 ng·h/mL
same,AUC0→∞,[1]; [3],708.1 ± 77.29 ng·h/mL
same,C max,[1]; [3],142.1 ± 22.24 ng/mL
same,T 1/2,[1]; [3],4.871 ± 1.121 h
same,T max,[1]; [3],2.421 ± 0.3810 h
same,AUC 0→t,[1]; [4],875.5 ± 217.1 ng·h/mL
same,AUC0→∞,[1]; [4],975.7 ± 255.4 ng·h/mL
same,C max,[1]; [4],228.6 ± 11.97 ng/mL
same,T 1/2,[1]; [4],4.569 ± 1.033 h
same,T max,[1]; [4],1.922 ± 0.3831 h
same,Stability (RE%) Post-preparative,"[2]; HQC (spiked 300.2 CuB, 600.2 CuD, 300.8 CuE ng/mL), 12 h at 4 °C post-sample preparation",−8.081%
same,Stability (RE%) Short-term,[2]; [5],−6.496%
same,Stability (RE%) Long-term,"[2]; HQC (spiked 300.2 CuB, 600.2 CuD, 300.8 CuE ng/mL), storage at −20 °C",−8.414%
same,Stability (RE%) Freeze-thaw,[2]; [5],−6.654%
same,Stability (RE%) Post-preparative,"[2]; LQC (spiked 5.272 CuB, 25.30 CuD, 5.257 CuE ng/mL), 12 h at 4 °C post-sample preparation",−6.702%
same,Stability (RE%) Short-term,[2]; [6],−6.465%
same,Stability (RE%) Long-term,"[2]; LQC (spiked 5.272 CuB, 25.30 CuD, 5.257 CuE ng/mL), storage at −20 °C",4.471%
same,Stability (RE%) Freeze-thaw,[2]; [6],−3.215%
same,Stability (RE%) Post-preparative,"[2]; MQC (spiked 150.1 CuB, 300.1 CuD, 150.4 CuE ng/mL), 12 h at 4 °C post-sample preparation",−10.45%
same,Stability (RE%) Short-term,[2]; [7],−3.932%
same,Stability (RE%) Long-term,"[2]; MQC (spiked 150.1 CuB, 300.1 CuD, 150.4 CuE ng/mL), storage at −20 °C",−11.01%
same,Stability (RE%) Freeze-thaw,[2]; [7],−7.542%
same,Stability in rat plasma (in words),"[2]; storage at −20 °C, 25 °C for 4 h, three freeze-thaw cycles, 12 h at 4 °C post-sample preparation",remained stable

# Source: article PMC12457114, “Comparison of the pharmacokinetic profiles of three triterpenoids after oral administration of a cucurbitacin tablet and nanosuspension by UHPLC-MS/MS” (Frontiers in Pharmacology, 2025)
